Values quoted from earlier work as cited in publication PMC5758054 (Journal of natural products, 2017).

System: DPP4
Details: ref [35]

Compound: N#C[C@@H]1CCCN1C(=O)CNC12CC3CC(CC(O)(C3)C1)C2 [Vildagliptin]
- prevention of GLP-1 degradation by DPP4 (in words): prevent DPP4 from degrading glucagon-like peptide 1 (GLP-1)
